Drawing on patent US9028810B2, “Composition for inducing migration of neural stem cells containing periostin as effective ingredient” (Ajou University Industry—Academic Cooperations Foundatin, priority 2010, dated 2015), this text covers inhibition for one molecule.

The test system of the experiment is neural stem cells. Nature of the experiment: In vitro migration assay using ERK pathway and CDK5 pathway inhibitors. The format is cell-based. As to conditions: Homo sapiens, Neural stem cell, 12 h, read-out: inhibition of migration of neural stem cells induced by periostin. From the text: It has been reported that, in the development of the central nervous system, neural stem cells migrate from the subventricular zone to cortex through radial glial cells using the ERK (extracellular signal regulated kinase) and CDK5 signaling pathways, and in the neuronal migration, DCX participated in nucleus translocation, neucleokinesis (Niethammer et al., 2000).
Cultured neural stem cells were detached with 0.05% trypsin, washed with DMEM medium and re-suspended in DMEM medium, after which 5×10^4 cells were inoculated into an upper chamber (Costar Transwell) in 200 μl of 10% FBS-containing DMEM medium.
After 12 hours, in order to determine the number of cells that migrated from the upper chamber through a 8-μm porous polycarbonate membrane to the lower portion of the membrane in response to the stimulation of the lower chamber, the migrated neural stem cells were stained with hematoxylin & eosin and counted.

Turning to `CC[C@H](CO)Nc1nc(NCc2ccccc2)c2ncn(C(C)C)c2n1` [roscovitine], the inhibition at 0.02 µM is 94%.
